Structures can show the parent of a compound that is named as a salt.

A short description of this data set: Compatibility study of dissolved tofacitinib citrate with excipients, 60° C. seven days, HPLC. The following applies: tofacitinib citrate in DMSO, 60° C. for seven days. The class given is physicochemical.

Compound `C[C@@H]1CCN(C(=O)CC#N)C[C@@H]1N(C)c1ncnc2[nH]ccc12` [Tofacitinib Citrate, 3-((3R,4R)-4-methyl-3-[methyl-(7H-pyrrolo[2,3-d]pyrimidin-4-yl)-amino]-piperidin-1-yl)-3-oxopropionitrile] returned a total degradation products of 4.17%.

Values taken from patent publication US12161748B2, “Topical formulations comprising tofacitinib” (TWi Biotechnology, Inc., priority 2018, dated 2024).
